# Patent US10246462B2, “Chemokine receptor modulators and uses thereof” (FLX Bio, Inc., priority 2016, dated 2019)
# Amino acid sequences for entries named in this document (tags omitted). A change or cut given only in a name is not applied to a line headed by its entry.
# UniProt P51679: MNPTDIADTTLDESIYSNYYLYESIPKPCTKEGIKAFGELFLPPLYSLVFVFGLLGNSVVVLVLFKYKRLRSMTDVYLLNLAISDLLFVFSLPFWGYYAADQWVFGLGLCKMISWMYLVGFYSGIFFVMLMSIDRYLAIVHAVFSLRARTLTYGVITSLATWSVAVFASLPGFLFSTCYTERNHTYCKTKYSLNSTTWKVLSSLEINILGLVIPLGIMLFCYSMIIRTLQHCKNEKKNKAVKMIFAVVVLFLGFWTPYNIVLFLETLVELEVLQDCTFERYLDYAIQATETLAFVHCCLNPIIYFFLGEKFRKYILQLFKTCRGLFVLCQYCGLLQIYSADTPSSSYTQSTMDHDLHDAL
# Where a name gives a salt, the structure may show the parent alone.
# Molecular target: CCR4 (Homo sapiens (Human), UniProt P51679)
# Assay: Calcium mobilization (Ca Flux) assay
# Format: cell-based
# Method: Calcium Mobilization Assay. Calcium mobilization experiments may be performed by labeling the human T-cell line CEM with […] dye (45 min at room temperature), washing with PBS, and re-suspending into flux buffer (HBSS with 1% FBS). For each experiment, 1×10^6 cells may be incubated at 37° C. in the cuvette of a PTI spectrometer, and the ratio of 410/490 nm emission plotted over time (typically 2-3 minutes), with compounds added at 5 seconds, followed by MDC, TARC or other chemokines.
row,Compound,IC50 [µM]
1,"Cc1nn([C@H](C)c2ccc(Cl)cc2Cl)c2nc(N3CC[C@H](N4CCCCCC4)[C@H](C)C3)cnc12 [Example 14, 6-((3R,4S)-4-(Azepan-1-yl)-3-methylpiperidin-1-yl)-1-((R)-1-(2,4-dichlorophenyl)ethyl)-3-methyl-1H-pyrazolo[3,4-b]pyrazine hydrochloride]",< 0.1
2,"Cc1nn([C@H](C)c2ccc(Cl)cc2Cl)c2nc(N3CC[C@H](N4CCC[C@H]4CO)[C@H](C)C3)cnc12 [Example 31, ((S)-1-((3R,4S)-1-(1-((R)-1-(2,4-Dichlorophenyl)ethyl)-3-methyl-1H-pyrazolo[3,4-b]pyrazin-6-yl)-3-methylpiperidin-4-yl)pyrrolidin-2-yl)methanol hydrochloride]",< 0.1
3,"Cc1nn([C@H](C)c2ccc(Cl)cc2Cl)c2nc(N3CC[C@@H](N4CCC[C@H]4CO)[C@@H](C)C3)cnc12 [Example 32, ((S)-1-((3S,4R)-1-(1-((R)-1-(2,4-Dichlorophenyl)ethyl)-3-methyl-1H-pyrazolo[3,4-b]pyrazin-6-yl)-3-methylpiperidin-4-yl)pyrrolidin-2-yl)methanol hydrochloride]",> 0.5

# Next, values leading:
row,IC50 [µM],Compound
1,< 0.1,"Cc1nn([C@H](C)c2ccc(Cl)cc2Cl)c2nc(N3CC[C@H](N4CCC4)[C@H](C)C3)cnc12 [Example 13, 6-((3R,4S)-4-(Azetidin-1-yl)-3-methylpiperidin-1-yl)-1-((R)-1-(2,4-dichlorophenyl)ethyl)-3-methyl-1H-pyrazolo[3,4-b]pyrazine hydrochloride]"
2,> 0.5,"Cc1nn([C@H](C)c2ccc(Cl)cc2Cl)c2nc(N3CC[C@@H](N4CCCCCC4)[C@@H](C)C3)cnc12 [Example 15, 6-((3S,4R)-4-(Azepan-1-yl)-3-methylpiperidin-1-yl)-1-((R)-1-(2,4-dichlorophenyl)ethyl)-3-methyl-1H-pyrazolo[3,4-b]pyrazine hydrochloride]"
